Laboratory results from BindingDB's records for doi:10.1016/j.jmb.2004.09.032 (Celera, 2004).

What was measured:
[1] = biological target: Urokinase-type plasminogen activator [179-431,I214M,N322A,S371A] (Homo sapiens, UniProt P00749, I214M/N322A/S371A); assay: Enzyme Assay and Determination of the Inhibition Constants
[2] = biological target: Urokinase-type plasminogen activator (Homo sapiens, UniProt P00749); assay: as above

Ki [1]: 1600 nM
Ki [2]: 16 nM
Compound: N=C(N)c1cc2cc(-c3cccc(-c4ccccc4)c3O)[nH]c2cc1F [CA-12]
